Molecular target: Bcl-2 (Homo sapiens, UniProt P10415)
Experiment: binding affinity to anti-apoptotic Bcl-2 family proteins

Chains of the proteins cited; added tags and fusions are not shown.
UniProt P10415, whole entry: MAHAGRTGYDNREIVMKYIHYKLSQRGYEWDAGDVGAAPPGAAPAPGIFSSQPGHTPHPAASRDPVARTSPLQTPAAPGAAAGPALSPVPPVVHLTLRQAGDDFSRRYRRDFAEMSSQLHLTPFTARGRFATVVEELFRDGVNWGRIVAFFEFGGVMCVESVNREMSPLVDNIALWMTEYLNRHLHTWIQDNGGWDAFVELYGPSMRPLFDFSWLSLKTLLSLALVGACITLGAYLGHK

In the case of `CC1(C)CCC(c2ccc(Cl)cc2)=C(CN2CCN(c3ccc(C(=O)NS(=O)(=O)c4ccc(N[C@H](CCN5CCOCC5)CSc5ccccc5)c(S(=O)(=O)C(F)(F)F)c4)cc3)CC2)C1` [ABT-263, N-(4-(4-((2-(4-chlorophenyl)-5,5-dimethyl-1-cyclohex-1-en-1-yl)methyl)piperazin-1-yl)benzoyl)-4-(((1R)-3-(morpholin-4-yl)-1-((phenylsulfanyl)methyl)propyl)amino)-3-((trifluoromethyl)sulfonyl)benzenesulfonamide], the Ki is reported as no more than 1 nM.

Reference: patent US20090149461A1, “METHOD OF TREATING CANCER” (ABBOTT LABORATORIES, priority 2007, published 2009)
